Assay results published in patent US20130122525A1.

Molecular target: streptavidin (Invitrogen), bound to a PEG/biotin-PEG passivated surface (UniProt P22629)
Assay: dissociation of surface-immobilized, biotinylated LeuT from the streptavidin-coated imaging plane (TIRF smFRET imaging; data not shown)

- koff: < 6.94e-05 s⁻¹
Substance: Cy3/Cy5-labeled LeuT (H7C/R86C) with a 15-amino-acid C-terminal biotinylation domain, biotinylated (other; other documents disagree on this pair)
